Reference: PubChem BioAssay AID504766 (The Scripps Research Institute Molecular Screening Center, 2011)
The entries are a selection whose mix differs from that of the whole data set. Activity calls are given as the source filed them.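 The calls were made as follows: active = inhibition above the mean over all tested compounds plus 3 SD (cut at about 4.2% in these data); inactive = the rest.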

Protein sequences, listed by entry. Tags and fused reporters are not part of them. Residues count along the entry.
UniProt P51843, 207-470 limits assumed: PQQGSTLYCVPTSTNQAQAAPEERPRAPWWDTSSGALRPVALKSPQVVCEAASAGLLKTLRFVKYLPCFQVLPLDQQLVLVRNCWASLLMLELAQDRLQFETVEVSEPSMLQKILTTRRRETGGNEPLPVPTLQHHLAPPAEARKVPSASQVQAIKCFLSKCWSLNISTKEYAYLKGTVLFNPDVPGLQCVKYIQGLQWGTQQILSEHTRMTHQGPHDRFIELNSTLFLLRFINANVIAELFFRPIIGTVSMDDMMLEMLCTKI

What follows are compounds tested against Nuclear receptor subfamily 0 group B member 1 (Homo sapiens) (UniProt P51843) (assay: DAX1 (NR0B1) inhibitors, primary screen, cell-based, HEK293, Gal4-DAX1, luciferase luminescence (AID 504766;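 also: 0% = DAX1-transfected cells with DMSO and 100% = empty-vector control cells with DMSO; inhibition shows as a rise in luminescence from relieved DAX1 repression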)). Conditions: HEK293 Gal4-DAX1 luciferase reporter, at 6.75 µM, active compounds read high.

SMILES	inhibition
CCC(=O)N(c1ccccc1)C1(COC)CCN(CCn2nnn(CC)c2=O)CC1	inactive: 0.33%
CCC(=O)N(c1ccccc1)C1(COC)CCN(CCc2cccs2)CC1	inactive: 0.18%
